Experimental data taken from US20250163048A1 (Tango Therapeutics, Inc., priority 2022, published 2025).
Where two headings read alike, the source gives them in different places.

Tests used:
[1] = test system: HAP1 MTAP-deleted cell line; experiment: SDMA in-cell western assay, HAP1 MTAP-deleted; details: for IC90 / IC50: Homo sapiens; for Hap1 MTAP intact/deleted ratio: IC50 ratio between HAP1 MTAP-intact and HAP1 MTAP-deleted cell line
MTAP-deleted cell line = experiment: viability assay for the MTAP-deleted cell line; type: cell-based; details: Homo sapiens, HAP1, viability assay
[2] = test system: HAP1 MTAP-intact cell line; experiment: SDMA in-cell western assay, HAP1 MTAP-intact; details: Homo sapiens
[3] = HAP1, read-out: Hap1 MTAP deleted IC90, SDMA in-cell western, HAP1 MTAP-deleted cell line
[4] = HAP1, read-out: Hap1 MTAP intact IC50, SDMA in-cell western, HAP1 MTAP-intact cell line
[5] = HAP1, read-out: Hap1 MTAP deleted IC50, SDMA in-cell western, HAP1 MTAP-deleted cell line
[6] = HAP1, read-out: Hap1 MTAP intact IC50, SDMA in-cell western assay, HAP1 MTAP-intact cell line
[7] = HAP1, read-out: Hap1 MTAP deleted IC50, SDMA in-cell western assay, HAP1 MTAP-deleted cell line
[8] = HAP1, read-out: Hap1 MTAP deleted IC90, SDMA in-cell western assay, HAP1 MTAP-deleted cell line

SMILES	IC90 [1, 3] [nM]	IC50 (MTAP-deleted cell line) [nM]	IC50 [2, 4] [nM]	IC50 [1, 5] [nM]	Hap1 MTAP intact/deleted ratio ([1]; SDMA in-cell western)	IC50 [2, 6] [nM]	IC50 [1, 7] [nM]	IC90 [1, 8] [nM]	Hap1 MTAP intact/deleted ratio ([1]; SDMA in-cell western assay)
CO[C@@H]1CN(C)CC[C@H]1c1nc2cc([C@H]3CC[C@H](C)CN3C(=O)C(=O)Nc3cncc4cn[nH]c34)ccc2s1 (mixture of isomers) [Compound 128, 2-((2R,5S)-2-(2-(rac-(3S,4R)-3-methoxy-1-methylpiperidin-4-yl)benzo[d]thiazol-5-yl)-5-methylpiperidin-1-yl)-2-oxo-N-(1H-pyrazolo[4,3-c]pyridin-7-yl)acetamide]	75 to 125	–	–	–	–	–	–	–	–
C[C@H]1CC[C@H](c2ccc3sc(C[C@@H]4CCN(C)C[C@H]4C)nc3c2)N(C(=O)C(=O)Nc2cncc3cn[nH]c23)C1 (single isomer, unassigned) [Compound 156]	< 75	< 100	5 to 50	< 5	B (“B” indicates an IC50 ratio greater than or equal to 15 fold but lower than 30 fold)	–	–	–	–
C[C@H]1CC[C@H](c2ccc(N3CCN(C)CC3)cc2)N(C(=O)C(=O)Nc2cnc(N)c3cn[nH]c23)C1 [Compound 120, N-(4-amino-1H-pyrazolo[4,3-c]pyridin-7-yl)-2-((2R,5S)-5-methyl-2-(4-(4-methylpiperazin-1-yl)phenyl)piperidin-1-yl)-2-oxoacetamide]	75 to 125	–	–	–	–	–	–	–	–
Cc1cnc2cc(NC(=O)C(=O)N3C[C@@H](C)CC[C@@H]3c3ccc4sc(CCN5CCCC5)nc4c3)ccn12 [Compound 24, 2-((2R,5S)-5-methyl-2-(2-(2-(pyrrolidin-1-yl)ethyl)benzo[d]thiazol-5-yl)piperidin-1-yl)-N-(3-methylimidazo[1,2-a]pyridin-7-yl)-2-oxoacetamide]	75 to 125	100 to 1000	> 50	5 to 50	A (“A” indicates an IC50 ratio greater than or equal to 30 fold)	–	–	–	–
C[C@H]1CC[C@H](c2ccc3c(cnn3C)c2)N(C(=O)C(=O)Nc2cnc(N)c3cn[nH]c23)C1 [Compound 152, N-(4-amino-1H-pyrazolo[4,3-c]pyridin-7-yl)-2-((2R,5S)-5-methyl-2-(1-methyl-1H-indazol-5-yl)piperidin-1-yl)-2-oxoacetamide]	< 75	< 100	5 to 50	< 5	B (“B” indicates an IC50 ratio greater than or equal to 15 fold but lower than 30 fold)	–	–	–	–
Cc1ccc([C@H]2CC[C@H](C)CN2C(=O)C(=O)Nc2cnc(N)c3cn[nH]c23)cc1 (racemic) [Compound 207, N-(4-Amino-1H-pyrazolo[4,3-c]pyridin-7-yl)-2-oxo-2-[rac-(2R,5S)-5-methyl-2-(p-tolyl)-1-piperidyl]acetamide]	–	< 100	–	–	–	5 to 50	< 5	< 75	B (“B” indicates an IC50 ratio greater than or equal to 15 fold but lower than 30 fold)
C[C@@H]1CC[C@@H](c2cccs2)N(C(=O)C(=O)Nc2cnc(N)c3cn[nH]c23)C1 (racemic) [Compound 217, N-(4-Amino-1H-pyrazolo[4,3-c]pyridin-7-yl)-2-oxo-2-[rac-(2R,5S)-5-methyl-2-(2-thienyl)-1-piperidyl]acetamide]	–	< 100	–	–	–	5 to 50	< 5	< 75	B (“B” indicates an IC50 ratio greater than or equal to 15 fold but lower than 30 fold)
C[C@H]1CC[C@H](c2ccc3cn(C)nc3c2)N(C(=O)C(=O)Nc2cnc(N)c3cn[nH]c23)C1 [Compound 180, N-(4-amino-1H-pyrazolo[4,3-c]pyridin-7-yl)-2-oxo-2-[(2R,5S)-5-methyl-2-(2-methylindazol-6-yl)-1-piperidyl]acetamide]	< 75	< 100	5 to 50	< 5	B (“B” indicates an IC50 ratio greater than or equal to 15 fold but lower than 30 fold)	–	–	–	–
C[C@H]1CC[C@H](c2ccc3c(c2)CCC(=O)N3)N(C(=O)C(=O)Nc2cnc(N)c3cn[nH]c23)C1 (racemic) [Compound 218, N-(4-Amino-1H-pyrazolo[4,3-c]pyridin-7-yl)-2-oxo-2-[rac-(2R,5S)-5-methyl-2-(2-oxo-3,4-dihydro-1H-quinolin-6-yl)-1-piperidyl]acetamide]	–	–	–	–	–	–	–	75 to 125	–
Cc1ncc(NC(=O)C(=O)N2C[C@@H](C)CC[C@@H]2c2ccc3sc(C4CCN(C)CC4)nc3c2)c2[nH]ncc12 [Compound 9, N-(4-methyl-1H-pyrazolo[4,3-c]pyridin-7-yl)-2-oxo-2-[(2R,5S)-5-methyl-2-[2-(1-methyl-4-piperidyl)-1,3-benzothiazol-5-yl]-1-piperidyl]acetamide]	< 75	< 100	5 to 50	< 5	C (“C” indicates an IC50 ratio of less than 15 fold)	–	–	–	–
CC(C)n1cc2ccc([C@H]3CC[C@H](C)CN3C(=O)C(=O)Nc3cnc(N)c4cn[nH]c34)cc2n1 (racemic) [Compound 240, N-(4-Amino-1H-pyrazolo[4,3-c]pyridin-7-yl)-2-oxo-2-[rac-(2R,5S)-2-(2-isopropylindazol-6-yl)-5-methyl-1-piperidyl]acetamide]	–	< 100	–	–	–	< 5	< 5	< 75	C (“C” indicates an IC50 ratio of less than 15 fold)
Cc1cnc2cc(NC(=O)C(=O)N3C[C@@H](C)CC[C@@H]3c3ccc4sc(CCN(C)C)nc4c3)ccn12 [Compound 34, 2-((2R,5S)-2-(2-(2-(dimethylamino)ethyl)benzo[d]thiazol-5-yl)-5-methylpiperidin-1-yl)-N-(3-methylimidazo[1,2-a]pyridin-7-yl)-2-oxoacetamide]	75 to 125	–	–	–	–	–	–	–	–
C[C@H]1CC[C@H](c2ccc3sc(N4CCN(C)CC4)nc3c2)N(C(=O)C(=O)Nc2cncc3cn[nH]c23)C1 [Compound 40, 2-((2R,5S)-5-methyl-2-(2-(4-methylpiperazin-1-yl)benzo[d]thiazol-5-yl)piperidin-1-yl)-2-oxo-N-(1H-pyrazolo[4,3-c]pyridin-7-yl)acetamide]	< 75	< 100	5 to 50	< 5	C (“C” indicates an IC50 ratio of less than 15 fold)	–	–	–	–
C[C@H]1CC[C@H](c2cccc(OC[C@H]3CCCN3C)c2)N(C(=O)C(=O)Nc2cncc3cn[nH]c23)C1 [Compound 118, 2-((2R,5S)-5-methyl-2-(3-(((R)-1-methylpyrrolidin-2-yl)methoxy)phenyl)piperidin-1-yl)-2-oxo-N-(1H-pyrazolo[4,3-c]pyridin-7-yl)acetamide]	> 125	100 to 1000	> 50	5 to 50	A (“A” indicates an IC50 ratio greater than or equal to 30 fold)	–	–	–	–
C[C@H]1CC[C@H](c2ccc3sc(C4(CN(C)C)COC4)nc3c2)N(C(=O)C(=O)Nc2ccn3ccnc3c2)C1 [Compound 96, 2-((2R,5S)-2-(2-(3-((dimethylamino)methyl)oxetan-3-yl)benzo[d]thiazol-5-yl)-5-methylpiperidin-1-yl)-N-(imidazo[1,2-a]pyridin-7-yl)-2-oxoacetamide]	75 to 125	–	–	–	–	–	–	–	–
C[C@H]1C[C@H](c2nc3cc([C@H]4CC[C@H](C)CN4C(=O)C(=O)Nc4cncc5cn[nH]c45)ccc3s2)CN(C)C1 (single isomer, unassigned) [Compound 179]	< 75	< 100	> 50	< 5	B (“B” indicates an IC50 ratio greater than or equal to 15 fold but lower than 30 fold)	–	–	–	–
C[C@H]1CC[C@H](c2ccc3sc([C@H]4CCN(C)C(C)(C)C4)nc3c2)N(C(=O)C(=O)Nc2cncc3c(N)nccc23)C1 (single isomer, unassigned) [Compound 103]	< 75	< 100	5 to 50	< 5	B (“B” indicates an IC50 ratio greater than or equal to 15 fold but lower than 30 fold)	–	–	–	–
C[C@H]1CC[C@H](c2ccc3sc(C4CCN(C)CC4)nc3c2)N(C(=O)C(=O)Nc2cncc3c(N)nccc23)C1 [Compound 41, N-(8-amino-2,7-naphthyridin-4-yl)-2-((2R,5S)-5-methyl-2-(2-(1-methylpiperidin-4-yl)benzo[d]thiazol-5-yl)piperidin-1-yl)-2-oxoacetamide]	< 75	< 100	> 50	< 5	A (“A” indicates an IC50 ratio greater than or equal to 30 fold)	–	–	–	–
C[C@@H]1CC[C@@H](c2ccc3sc(CCN(C)C)nc3c2)N(C(=O)C(=O)Nc2cncc3cn[nH]c23)C1 (relative stereo) [Compound 70, rel-2-((2R,5S)-2-(2-(2-(dimethylamino)ethyl)benzo[d]thiazol-5-yl)-5-methylpiperidin-1-yl)-2-oxo-N-(1H-pyrazolo[4,3-c]pyridin-7-yl)acetamide]	> 125	> 1000	> 50	> 50	C (“C” indicates an IC50 ratio of less than 15 fold)	–	–	–	–
C[C@H]1CC[C@H](c2ccc3c(c2)CN(C)CC3)N(C(=O)C(=O)Nc2cnc(N)c3cn[nH]c23)C1 (racemic) [Compound 279, N-(4-Amino-2H-pyrazolo[4,3-c]pyridin-7-yl)-2-oxo-2-[rac-(5S)-5-methyl-2-(2-methyl-3,4-dihydro-1H-isoquinolin-7-yl)-1-piperidyl]acetamide]	–	< 100	–	–	–	5 to 50	< 5	< 75	C (“C” indicates an IC50 ratio of less than 15 fold)
